Test results published in patent US20260216354A1, “ANTI-CMET ANTIBODY, ANTIBODY-DRUG CONJUGATE, AND PREPARATION METHOD THEREFOR AND USE THEREOF” (MEDILINK THERAPEUTICS (SUZHOU) CO., LTD., priority 2022, published 2026).

What was measured:
[1] = HIC hydrophilicity and hydrophobicity detection; format: physicochemical; settings: retention on hydrophobic chromatographic column
Rat-cMet-hFc = target: T1, Rat-cMet-hFc (Rattus norvegicus, UniProt P97523); assay: ELISA cross-detection with rat cMet; format: binding; settings: FIG. 1
T1 construct: a rat cMet ectodomain recombinant protein (Rat-cMet-hFc, c-MET Protein, Rat, Recombinant (hFc Tag)); purchased Sino Biological, Inc. 80004-R02H
T1 sequence (P97523 25-935 limits assumed): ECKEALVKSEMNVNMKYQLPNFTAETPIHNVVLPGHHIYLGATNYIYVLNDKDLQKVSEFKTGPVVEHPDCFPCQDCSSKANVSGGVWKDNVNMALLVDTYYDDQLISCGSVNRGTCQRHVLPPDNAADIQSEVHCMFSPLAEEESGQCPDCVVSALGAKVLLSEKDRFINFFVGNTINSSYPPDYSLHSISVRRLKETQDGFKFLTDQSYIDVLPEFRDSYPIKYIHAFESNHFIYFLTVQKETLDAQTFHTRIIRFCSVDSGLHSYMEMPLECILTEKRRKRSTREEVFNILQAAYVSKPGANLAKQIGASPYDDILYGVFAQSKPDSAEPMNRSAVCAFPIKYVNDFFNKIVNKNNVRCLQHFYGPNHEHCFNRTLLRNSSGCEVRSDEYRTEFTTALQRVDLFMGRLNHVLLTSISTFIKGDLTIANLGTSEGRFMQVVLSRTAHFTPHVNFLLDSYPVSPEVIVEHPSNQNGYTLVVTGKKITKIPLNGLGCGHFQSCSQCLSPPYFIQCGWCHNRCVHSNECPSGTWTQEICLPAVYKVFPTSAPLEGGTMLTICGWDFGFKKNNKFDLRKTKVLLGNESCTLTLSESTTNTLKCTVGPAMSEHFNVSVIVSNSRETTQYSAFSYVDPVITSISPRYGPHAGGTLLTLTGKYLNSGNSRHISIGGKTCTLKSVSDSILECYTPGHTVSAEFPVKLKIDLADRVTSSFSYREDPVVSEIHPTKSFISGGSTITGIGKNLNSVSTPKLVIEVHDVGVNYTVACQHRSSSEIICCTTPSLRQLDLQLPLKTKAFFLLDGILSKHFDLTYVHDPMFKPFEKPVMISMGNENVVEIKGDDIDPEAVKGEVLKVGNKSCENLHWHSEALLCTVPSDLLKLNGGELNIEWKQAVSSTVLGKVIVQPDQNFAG

mouse cMet-ECD-His = target: T2, mouse cMet-ECD-His (Mus musculus, UniProt P16056); assay: ELISA cross-detection with mouse cMet; format: binding; settings: FIG. 2
T2 construct: a mouse cMet ectodomain recombinant protein (mouse cMet-ECD-His, c-MET Protein, Mouse, Recombinant (ECD, His Tag)); purchased Sino Biological, Inc. 50622-M08H
T2 sequence (P16056 25-931 limits assumed): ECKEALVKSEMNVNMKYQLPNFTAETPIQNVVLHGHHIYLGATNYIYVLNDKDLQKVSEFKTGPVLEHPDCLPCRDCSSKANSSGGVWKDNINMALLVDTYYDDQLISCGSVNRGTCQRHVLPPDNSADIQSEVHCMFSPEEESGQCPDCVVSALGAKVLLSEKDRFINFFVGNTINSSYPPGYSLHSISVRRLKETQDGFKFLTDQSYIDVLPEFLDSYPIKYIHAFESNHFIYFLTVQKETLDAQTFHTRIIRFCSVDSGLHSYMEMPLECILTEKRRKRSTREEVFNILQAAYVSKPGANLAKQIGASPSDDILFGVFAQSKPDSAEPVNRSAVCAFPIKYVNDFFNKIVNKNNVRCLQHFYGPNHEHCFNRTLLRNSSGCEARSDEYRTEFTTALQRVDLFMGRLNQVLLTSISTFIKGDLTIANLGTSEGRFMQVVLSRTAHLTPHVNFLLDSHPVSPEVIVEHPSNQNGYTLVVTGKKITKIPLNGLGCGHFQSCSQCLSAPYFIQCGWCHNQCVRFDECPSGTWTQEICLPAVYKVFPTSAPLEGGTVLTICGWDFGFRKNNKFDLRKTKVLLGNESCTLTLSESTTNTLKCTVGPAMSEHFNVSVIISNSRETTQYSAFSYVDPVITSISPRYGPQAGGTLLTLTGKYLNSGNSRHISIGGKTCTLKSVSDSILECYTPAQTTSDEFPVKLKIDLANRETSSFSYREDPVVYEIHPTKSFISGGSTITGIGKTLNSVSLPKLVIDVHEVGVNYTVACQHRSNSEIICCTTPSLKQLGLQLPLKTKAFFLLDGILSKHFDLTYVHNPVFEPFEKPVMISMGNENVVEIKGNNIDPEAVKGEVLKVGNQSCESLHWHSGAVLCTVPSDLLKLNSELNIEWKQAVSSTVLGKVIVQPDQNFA

MKN45 cells = assay: Endocytic activity on MKN45 cells; format: cell-based, human; settings: 10 μg/mL, 37° C.

B1: 55A10G6-Hz: humanized anti-c-Met antibody, IgG1/Kappa; HC SEQ ID NO: 58, LC SEQ ID NO: 59 (antibody)
heavy: QIQLVQSGAEVKKPGASVKVSCKASGYTFTDYYLNWVRQAPGQGLEWMGWIFPGSGNTKYSQKFQGRVTLTVDTSASTAYMELSSLRSEDTAVYYCAGGDYGGFTYWGQGTLVTVSSASTKGPSVFPLAPSSKSTSGGTAALGCLVKDYFPEPVTVSWNSGALTSGVHTFPAVLQSSGLYSLSSVVTVPSSSLGTQTYICNVNHKPSNTKVDKKV[human IgG1 Fc omitted here]
light: DIQMTQSPSSLSASVGDRVTITCGASENIYGALNWYQQKPGKAPKLLIYGATNLAAGVPSRFSGSGSGRDFTLTISSLQPEDFATYYCQNVLSEPLTFGQGTKVEIKRTVAAPSVFIFPPSDEQLKSGTASVVCLLNNFYPREAKVQWKVDNALQSGNSQESVTEQDSKDSTYSLSSTLTLSKADYEKHKVYACEVTHQGLSSPVTKSFNRGEC
Which “HIC” value [1] does the source give for B1 here?
Its value is 15.0 min.

And the “cross with rat cMet (binding)” value (Rat-cMet-hFc)?
The value was “do not bind”.

What about the “cross with mouse cMet (binding)” value (mouse cMet-ECD-His) of the same molecule?
The value was “do not bind”.

And the Endocytosis rate % (MKN45 cells; 1 h)?
The Endocytosis rate % was 18.4%.

What about the Endocytosis rate % (MKN45 cells; 2 h) of the same molecule?
The Endocytosis rate % was 33.0%.

And the Endocytosis rate % (MKN45 cells; 4 h)?
Its Endocytosis rate % is 59.1%.
